According to patent publication US11124489B2, “EPAC antagonists” (priority 2017, dated 2021):

Assays:
EPAC1 = EPAC1 (Homo sapiens (Human), UniProt O95398); settings: for IC50: read-out: Rap 1b-bGDP EPAC1 IC50; for Relative GEF activity, EPAC1-mediated Rap1b-bGDP exchange: in the presence of 20 μM cAMP, figure
EPAC2 [1] = biological target: T1, EPAC2 (Mus musculus (Mouse), UniProt Q9EQZ6); experiment: biochemical; settings: Rap1b-bGDP EPAC2 IC50, apparent IC50, EPAC2 GEF activity, 20 μM cAMP
EPAC2 [2] = biological target: T1, EPAC2; settings: in the presence of 20 μM cAMP; figure

SMILES	IC50 (EPAC1)	IC50 (EPAC2 [1])	Relative GEF activity, EPAC1-mediated Rap1b-bGDP exchange (EPAC1)	Relative GEF activity, EPAC2-mediated Rap1b-bGDP exchange (EPAC2 [2])	IC50 (EPAC1; apparent IC50, EPAC1 GEF activity, 20 μM cAMP)
CC(C)(C)c1ccc(C(=O)/C(C#N)=N/Nc2ccc(F)c(Cl)c2)cc1 [Compound 12]	> 150 µM				
CC(C)(C)c1ccc(C(=O)/C(C#N)=N/Nc2cccc(Cl)c2)cc1 [ZL0474, (E)-2-(4-(tert-butyl)phenyl)-N-(3-chlorophenyl)-2-oxoacetohydrazonoyl cyanide]	13.3 ± 3 µM	28.4 ± 5.6 µM	dose-dependent inhibition	dose-dependent inhibition	
CC(C)(C)c1ccc(C(=O)/C(C#N)=N/Nc2cc(Cl)cc(Cl)c2)cc1 [ZL0475, (E)-2-(4-(tert-butyl)phenyl)-N-(3,5-dichlorophenyl)-2-oxoacetohydrazonoyl cyanide]	5.4 ± 0.7 µM	2.5 ± 0.6 µM			
CC(C)(C)c1ccc(C(=O)/C(C#N)=N/Nc2ccc(F)c(Cl)c2)cc1 [ZL0476, (E)-2-(4-(tert-butyl)phenyl)-N-(3-chloro-4-fluorophenyl)-2-oxoacetohydrazonoyl cyanide]	12.4 ± 0.9 µM				
CC(C)(C)c1ccc(C(=O)/C(C#N)=N/Nc2cc(F)cc(Cl)c2)cc1 [ZL0477, (E)-2-(4-(tert-butyl)phenyl)-N-(3-chloro-5-fluorophenyl)-2-oxoacetohydrazonoyl cyanide]	6.4 ± 1.4 µM	3.4 ± 0.6 µM			
CC(C)(C)c1ccc(C(=O)/C(C#N)=N/Nc2cc(F)c(F)c(F)c2)cc1 [ZL0478, (E)-2-(4-(tert-butyl)phenyl)-2-oxo-N-(3,4,5-trifluorophenyl)acetohydrazonoyl cyanide]	24.4 ± 5.7 µM	15.8 ± 3.8 µM			
CC(C)(C)c1ccc(C(=O)/C(C#N)=N/Nc2cc(C(F)(F)F)cc(C(F)(F)F)c2)cc1 [ZL0479, (E)-N-(3,5-bis(trifluoromethyl)phenyl)-2-(4-(tert-butyl)phenyl)-2-oxoacetohydrazonoyl cyanide]	5.5 ± 0.7 µM	6.3 ± 0.9 µM	dose-dependent inhibition	dose-dependent inhibition	
N#C/C(=N\Nc1cc(Cl)cc(Cl)c1)C(=O)c1ccc2c(c1)CCCC2 [ZL0524, (E)-N-(3,5-dichlorophenyl)-2-oxo-2-(5,6,7,8-tetrahydronaphthalen-2-yl)acetohydrazonoyl cyanide]	3.6 ± 0.3 µM	1.2 ± 0.1 µM	dose-dependent inhibition	dose-dependent inhibition	
CC(C)(C)c1ccc(C(=O)/C(C#N)=N/Nc2ccc(Cl)c(C(F)(F)F)c2)cc1 [ZL0559, (E)-2-(4-(tert-butyl)phenyl)-N-(4-chloro-3-(trifluoromethyl)phenyl)-2-oxoacetohydrazonoyl cyanide]	6.1 ± 1 µM	12.4 ± 3.9 µM			
CC(C)(C)c1ccc(C(=O)/C(C#N)=N/Nc2cc(Cl)cc(C(F)(F)F)c2)cc1 [ZL0560, (E)-2-(4-(tert-butyl)phenyl)-N-(3-chloro-5-(trifluoromethyl)phenyl)-2-oxoacetohydrazonoyl cyanide]	5.6 ± 0.9 µM	5.4 ± 1.1 µM			
CC(C)(C)c1ccc(C(=O)/C(C#N)=N/Nc2ccc(C(F)(F)F)c(Cl)c2)cc1 [ZL0561, (E)-2-(4-(tert-butyl)phenyl)-N-(3-chloro-4-(trifluoromethyl)phenyl)-2-oxoacetohydrazonoyl cyanide]	50.8 ± 14.6 µM				
CC(C)(C)c1ccc(C(=O)/C(C#N)=N/Nc2cc(Cl)c(Cl)c(Cl)c2)cc1 [ZL0562, (E)-2-(4-(tert-butyl)phenyl)-2-oxo-N-(3,4,5-trichlorophenyl)acetohydrazonoyl cyanide]	13.9 ± 3.6 µM				
N#C/C(=N\Nc1cc(Cl)cc(Cl)c1)C(=O)c1ccc(OC(F)(F)F)cc1 [ZL0564, (E)-N-(3,5-dichlorophenyl)-2-oxo-2-(4-(trifluoromethoxy)phenyl)acetohydrazonoyl cyanide]	40.9 ± 6.8 µM				
COC(=O)c1ccc(C(=O)/C(C#N)=N/Nc2cc(Cl)cc(Cl)c2)cc1 [ZL0566, Methyl (E)-4-(2-cyano-2-(2-(3,5-dichlorophenyl)hydrazono)acetyl)benzoate]					29.3 ± 6.2 µM
N#C/C(=N\Nc1cc(Cl)cc(Cl)c1)C(=O)c1ccc(C2CCCCC2)cc1 [ZL0634, (E)-2-(4-cyclohexylphenyl)-N-(3,5-dichlorophenyl)-2-oxoacetohydrazonoyl cyanide]	32.4 ± 9.5 µM				
N#C/C(=N\Nc1cc(Cl)cc(Cl)c1)C(=O)c1ccc2ncccc2c1 [ZL0642, (E)-N-(3,5-dichlorophenyl)-2-oxo-2-(quinolin-6-yl)acetohydrazonoyl cyanide]	19.6 ± 6.7 µM				
N#C/C(=N\Nc1cc(Cl)cc(Cl)c1)C(=O)c1ccc(CN2CCCCC2)cc1 [ZL0644, (E)-N-(3,5-dichlorophenyl)-2-oxo-2-(4-(piperidin-1-ylmethyl)phenyl)acetohydrazonoyl cyanide]	39.4 ± 4.7 µM				
N#C/C(=N\Nc1cc(Cl)cc(Cl)c1)C(=O)c1ccc(CN2CCOCC2)cc1 [ZL0668, (E)-N-(3,5-dichlorophenyl)-2-(4-(morpholinomethyl)phenyl)-2-oxoacetohydrazonoyl cyanide]	14.6 ± 5.7 µM				
N#C/C(=N\Nc1cc(Cl)cc(Cl)c1)C(=O)c1ccc2ccccc2c1 [ZL0682, (E)-N-(3,5-dichlorophenyl)-2-(naphthalen-2-yl)-2-oxoacetohydrazonoyl cyanide]	11.3 ± 1.4 µM	2.5 ± 0.5 µM			

Like-named read-outs stand apart in the source and are kept apart here.
